Ki data for one molecule are collected here from ChEMBL document CHEMBL1143351 (J Med Chem, 2009).

Each structure is given as a SMILES string.

This experiment has as its target T1, Nitric oxide synthase, inducible (Mus musculus, UniProt P29477).
T1 sequence (P29477 whole entry): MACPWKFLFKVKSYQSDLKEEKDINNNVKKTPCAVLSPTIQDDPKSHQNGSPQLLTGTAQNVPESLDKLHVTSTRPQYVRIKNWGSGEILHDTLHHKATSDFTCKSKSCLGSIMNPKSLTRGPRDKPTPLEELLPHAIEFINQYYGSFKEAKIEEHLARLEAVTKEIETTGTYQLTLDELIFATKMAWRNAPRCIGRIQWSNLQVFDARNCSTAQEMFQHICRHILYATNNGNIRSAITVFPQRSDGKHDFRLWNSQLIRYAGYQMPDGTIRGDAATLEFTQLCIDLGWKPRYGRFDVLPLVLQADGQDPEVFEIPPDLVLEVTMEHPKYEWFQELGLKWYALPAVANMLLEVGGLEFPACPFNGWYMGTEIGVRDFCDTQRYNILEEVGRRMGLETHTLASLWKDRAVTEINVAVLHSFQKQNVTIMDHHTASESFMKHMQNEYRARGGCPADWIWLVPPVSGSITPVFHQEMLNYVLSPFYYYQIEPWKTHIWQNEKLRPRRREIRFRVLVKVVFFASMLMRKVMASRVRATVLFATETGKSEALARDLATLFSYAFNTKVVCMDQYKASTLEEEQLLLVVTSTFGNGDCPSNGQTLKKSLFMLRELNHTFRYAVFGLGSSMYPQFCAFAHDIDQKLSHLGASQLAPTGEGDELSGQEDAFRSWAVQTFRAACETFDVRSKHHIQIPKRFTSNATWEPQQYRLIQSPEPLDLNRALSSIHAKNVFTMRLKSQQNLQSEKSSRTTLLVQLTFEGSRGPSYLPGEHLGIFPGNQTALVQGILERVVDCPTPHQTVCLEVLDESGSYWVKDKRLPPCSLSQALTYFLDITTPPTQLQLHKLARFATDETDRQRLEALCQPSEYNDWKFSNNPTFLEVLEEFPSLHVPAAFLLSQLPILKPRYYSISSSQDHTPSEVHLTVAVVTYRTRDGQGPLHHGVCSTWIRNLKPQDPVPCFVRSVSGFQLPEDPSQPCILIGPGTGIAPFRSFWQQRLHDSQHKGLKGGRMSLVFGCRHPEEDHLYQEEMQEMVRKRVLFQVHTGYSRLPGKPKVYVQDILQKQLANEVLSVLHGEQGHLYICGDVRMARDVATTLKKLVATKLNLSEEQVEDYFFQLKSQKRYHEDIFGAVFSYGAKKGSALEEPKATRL

Usually Ki stands for the equilibrium dissociation constant of an inhibitor or competing ligand from its target. Read a low Ki as tighter binding.

With `Cc1cc(N)nc(C[C@H]2CNC[C@H]2NCCNCc2cccc(Cl)c2)c1` (racemic), the affinity, expressed as Ki, was 9.48 µM.
